# Binding of CDR-mutated scFvs to a peptide of the spike HR2 region

Reference: Engelhart et al. 2022, doi:10.1038/s41597-022-01779-4. File: FLAb, binding data.

All variants were tested on one target, the spike HR2 peptide PDVDLGDISGINAS (SARS-CoV-2).

Each scFv is VH, a 15-residue (Gly4Ser)3 linker, VL, as in the parent Ab-14, and differs from it in the CDRs of the heavy chain only.
VH: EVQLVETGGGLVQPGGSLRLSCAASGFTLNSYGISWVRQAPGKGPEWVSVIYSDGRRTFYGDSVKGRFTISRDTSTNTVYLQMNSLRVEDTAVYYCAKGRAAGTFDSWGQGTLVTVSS
VL: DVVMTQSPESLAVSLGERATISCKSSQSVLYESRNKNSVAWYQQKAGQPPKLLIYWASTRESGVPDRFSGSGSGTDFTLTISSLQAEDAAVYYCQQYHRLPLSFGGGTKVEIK

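Phage display of a naive human antibody library on the peptide gave the parent. Library AAYL49 holds single substitutions and randomly drawn double and triple substitutions in the CDRs. The scFvs were displayed on barcoded MATa yeast, the peptide on MATalpha yeast. The frequency of each diploid, read from paired DNA barcodes, reflects how well the two displayed proteins bind. Scores were corrected for input abundance and mapped to Kd with protein pairs of known affinity run in the same pool. Mating was done three times.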

Changes read parent residue, position, new residue, counted from the first residue of the VH shown.
Numbers give log10(Kd / nM), so 0 is 1 nM and 3 is 1 µM. Smaller is tighter.
Replicates are averaged; those with no signal do not enter the mean.
An entry "not detected" has no value in the source: the pair was not observed among the diploids in any replicate. This suggests poor binding but is not conclusive.
Three control strains display no target. For library AAYL49, 15% of the pairings with them gave a signal, with a median of 4.06 and one signal in twenty below 2.83, so weak values seen in few replicates may be background.

mean log10 Kd (nM) | replicates with signal | changes
4.55 | 1/3 | D54W+G61I+K65S
4.82 | 3/3 | I34Y+G61E+D62Q
not detected | 0/3 | S35W+V50N+G55N
5.73 | 3/3 | I51T+Y52R+G103K
not detected | 0/3 | Y32E+G55D+G99K
5.58 | 1/3 | G103L+D106K
not detected | 0/3 | S35V+R100Y
not detected | 0/3 | G33D+G61F+S107T
not detected | 0/3 | F27V+T58N+Y60I
1.51 | 3/3 | T28H+S53A+Y60T
not detected | 0/3 | V50T+Y60H+A101K
1.86 | 1/3 | I51D+K65G+S107T
not detected | 0/3 | Y52R+T58G+K65R
4.87 | 1/3 | R57T+R100P+F105V
4.51 | 1/3 | I51N+F59M+K65R
not detected | 0/3 | Y52K+D62Y+G103L
not detected | 0/3 | T58P+F59T+A102S
4.08 | 1/3 | Y32S+D62T+A102I
5.11 | 2/3 | I34M+V64E+G103S
not detected | 0/3 | I34G+G103K+T104A
not detected | 0/3 | N30A+A102C+F105K
3.10 | 1/3 | N30D+G33Y+R56L
not detected | 0/3 | T28C+G99Y
not detected | 0/3 | N30F+G33N+A102K
3.20 | 3/3 | D62C+R100H+S107Q
3.69 | 1/3 | G33L+F59M+K65Y
4.41 | 1/3 | L29A+F59E+A101G
3.44 | 2/3 | G26L+T58R+S63N
2.48 | 3/3 | F27H+T28I+T58N
not detected | 0/3 | T28I+S35D+G61L
2.82 | 3/3 | T28C+D62N+S107H
0.88 | 3/3 | R56M+G61K+R100G
not detected | 0/3 | F27K+Y32A+G103R
6.10 | 1/3 | T28K+D54W+D106F
3.84 | 3/3 | Y32M+K65R+D106Y
not detected | 0/3 | G33H+K65P+D106R
4.45 | 3/3 | S31D+S35Q+S107Y
not detected | 0/3 | I34T+R56L+K65A
not detected | 0/3 | Y32S+Y52C+G55M
not detected | 0/3 | T28G+I51M+F105S
not detected | 0/3 | F27H+I34F+S63A
3.78 | 1/3 | T28G+R56P+D106A
not detected | 0/3 | I34C+I51L+K65N
not detected | 0/3 | K65W+G99R+F105N
2.03 | 3/3 | F27L+D62N
3.34 | 1/3 | L29T+V50G+D106I
not detected | 0/3 | T28E+Y60F+D62M
5.49 | 1/3 | F27I+D54N+F105Y
5.33 | 1/3 | I34V+F59M+A102W
not detected | 0/3 | D62L+V64H+A102I
not detected | 0/3 | G33L+D62F+R100M
3.51 | 2/3 | G26A+R57T+T58Y
3.43 | 1/3 | L29G+K65M+D106K
not detected | 0/3 | I51A+T58K+V64R
not detected | 0/3 | F27G+G61E+V64M
not detected | 0/3 | T58V+G61Q+T104K
4.33 | 1/3 | V64P+R100Y+D106C
not detected | 0/3 | G33A+S53P
not detected | 0/3 | G55W+Y60D
not detected | 0/3 | G26L+L29V+Y52H
not detected | 0/3 | L29R+V50M+D106F
4.55 | 1/3 | Y32V+S53P+Y60I
4.78 | 1/3 | L29R+F59W+D62F
not detected | 0/3 | G103T+F105A+D106N
4.09 | 2/3 | I51C+D62F+A102P

Excerpt, the final 4 entries:

changes,mean log10 Kd (nM),replicates with signal
Y32V+S53P+Y60I,4.55,1/3
L29R+F59W+D62F,4.78,1/3
G103T+F105A+D106N,not detected,0/3
I51C+D62F+A102P,4.09,2/3

Parent in this assay: reference entry 0.65, copy in this library 4.11 (one replicate of three).